The target in this experiment is T1, mouse LRRC15 (mouse, UniProt Q80X72 22-579).
T1 construct: whole, on cells
The experiment in a line: FACS on CHO cells expressing mouse LRRC15. As to the method: Furthermore, the binding ability of the LRRC15 antibodies of the present invention to CHO cells expressing LRRC15 was tested. Therein, CHO cells expressing LRRC15 were prepared by the following method: the full-length sequence gene fragments of human, mouse and monkey LRRC15 were obtained by whole gene synthesis, and then these fragments were inserted into the backbone of the stable expression vector to obtain the expression plasmid vectors. These three plasmids were transfected into CHO cells, and monoclonal cell lines were screened under the pressure of puromycin, which are the flow cytometry cell lines used in this example.
CHO cells expressing LRRC15 were washed with FACS buffer (0.5% BSA in PBS) and resuspended at 2E6 cells/ml with the gradient diluted LRRC15 antibodies. The resuspension was incubated on ice for 30 minutes, then washed twice with FACS buffer and incubated with the second antibody on ice for 30 minutes. After washing the resuspended cells with FACS buffer again, the cells were detected by flow cytometry. Based on the measured mean fluorescence intensity, the half maximal binding concentration (EC50) of each antibody was determined.

B1: L15-08 (antibody, V domains shown)
VH: QVQLVESGGGLVKPGGSLRLSCAASGFTFSDYYMSWIRQAPGKGLEWVSDISVSSSYTNYADSVKGRFTISRDNAKNSLYLQMNSLRAEDTAVYYCARLGGYRSFFSTDDGDSLDYWGQGTLVTVSS
VL: not shown
notes: From phage library screening; also called anti-LRRC15 antibody L15-08
On to B1, for which the binding result is given as “binds”.

B2: L15-07 (antibody, V domains shown)
VH: QVQLVQSGAEVKKPGSSVKVSCKASGGTFSTYAISWVRQAPGQGLEWMGGITPMFGTPNYAQKFQGRVTITADESTSTAYMELSSLRSEDTAVYYCARGDWYDYHFDYWGQGTLVTVSS
VL: QSALTQPASVSGSPGQSITISCTGTSSDVGGYNYVSWYQQHPGKAPKLMIYEVSNRPSGVSNRFSGSKSGNTASLTISGLQAEDEADYYCQSYANRDNFVVFGGGTKLTVL
notes: From phage library screening; also called anti-LRRC15 antibody L15-07
On to B2, for which the binding result is listed as “binds”.

B3: L15-06 (antibody, V domains shown)
VH: EVQLLESGGGLVQPGGSLRLSCAASGFTFSSYYMSWVRQAPGKGLEWVADISVSGSYTNYADSVKGRFTISRDNSKNTLYLQMNSLRAEDTAVYYCARIGSYRSFFSTDDGDSLDYWGQGTLVTVSS
VL: not shown
notes: From phage library screening; tested as a 'monoclonal antibody molecule'; also called L15-L06; anti-LRRC15 antibody L15-06
For B3, the binding result was “binds”.

Source of the values: patent publication US20250051444A1 (SUZHOU ZELGEN BIOPHARMACEUTICALS, published 2025).
